Test results taken from patent US9242993B2, “Morpholino substituted bicyclic pyrimidine urea or carbamate derivatives as mTOR inhibitors” (CELLZOME LIMITED, priority 2011, dated 2016).
pIC50: −log10 of the molar value. Like-named read-outs stand apart in the source and are kept apart here.

Chains of the proteins cited; added tags and fusions are not shown. Lines headed by an entry give the natural chain unless they say otherwise; changes in a name come on top.
UniProt O00329: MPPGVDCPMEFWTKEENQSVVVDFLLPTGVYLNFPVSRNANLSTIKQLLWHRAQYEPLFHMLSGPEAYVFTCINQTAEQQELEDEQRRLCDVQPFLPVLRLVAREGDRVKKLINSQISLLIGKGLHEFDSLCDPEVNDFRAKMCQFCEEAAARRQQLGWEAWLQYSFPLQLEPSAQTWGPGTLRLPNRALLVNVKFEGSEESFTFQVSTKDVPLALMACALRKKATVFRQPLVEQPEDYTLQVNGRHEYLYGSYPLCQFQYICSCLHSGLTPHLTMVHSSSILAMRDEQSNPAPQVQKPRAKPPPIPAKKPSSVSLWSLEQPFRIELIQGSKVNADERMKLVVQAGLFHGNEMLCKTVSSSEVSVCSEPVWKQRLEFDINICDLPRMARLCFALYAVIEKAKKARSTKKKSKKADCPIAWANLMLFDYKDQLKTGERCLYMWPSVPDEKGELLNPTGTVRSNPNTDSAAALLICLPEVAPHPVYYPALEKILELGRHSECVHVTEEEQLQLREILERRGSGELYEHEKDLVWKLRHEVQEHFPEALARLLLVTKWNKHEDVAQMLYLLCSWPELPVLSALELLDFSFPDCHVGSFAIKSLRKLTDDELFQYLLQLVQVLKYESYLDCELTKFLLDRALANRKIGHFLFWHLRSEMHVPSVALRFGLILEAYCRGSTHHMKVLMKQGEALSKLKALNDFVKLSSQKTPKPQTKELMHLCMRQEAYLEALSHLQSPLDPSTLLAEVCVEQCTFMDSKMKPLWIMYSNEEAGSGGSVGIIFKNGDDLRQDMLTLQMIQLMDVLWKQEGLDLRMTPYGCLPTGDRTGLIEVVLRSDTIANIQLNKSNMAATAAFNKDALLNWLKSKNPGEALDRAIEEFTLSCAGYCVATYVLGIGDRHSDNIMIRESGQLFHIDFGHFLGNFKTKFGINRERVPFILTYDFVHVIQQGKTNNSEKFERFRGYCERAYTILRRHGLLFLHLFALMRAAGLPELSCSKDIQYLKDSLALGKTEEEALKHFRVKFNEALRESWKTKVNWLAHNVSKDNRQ
UniProt P48736: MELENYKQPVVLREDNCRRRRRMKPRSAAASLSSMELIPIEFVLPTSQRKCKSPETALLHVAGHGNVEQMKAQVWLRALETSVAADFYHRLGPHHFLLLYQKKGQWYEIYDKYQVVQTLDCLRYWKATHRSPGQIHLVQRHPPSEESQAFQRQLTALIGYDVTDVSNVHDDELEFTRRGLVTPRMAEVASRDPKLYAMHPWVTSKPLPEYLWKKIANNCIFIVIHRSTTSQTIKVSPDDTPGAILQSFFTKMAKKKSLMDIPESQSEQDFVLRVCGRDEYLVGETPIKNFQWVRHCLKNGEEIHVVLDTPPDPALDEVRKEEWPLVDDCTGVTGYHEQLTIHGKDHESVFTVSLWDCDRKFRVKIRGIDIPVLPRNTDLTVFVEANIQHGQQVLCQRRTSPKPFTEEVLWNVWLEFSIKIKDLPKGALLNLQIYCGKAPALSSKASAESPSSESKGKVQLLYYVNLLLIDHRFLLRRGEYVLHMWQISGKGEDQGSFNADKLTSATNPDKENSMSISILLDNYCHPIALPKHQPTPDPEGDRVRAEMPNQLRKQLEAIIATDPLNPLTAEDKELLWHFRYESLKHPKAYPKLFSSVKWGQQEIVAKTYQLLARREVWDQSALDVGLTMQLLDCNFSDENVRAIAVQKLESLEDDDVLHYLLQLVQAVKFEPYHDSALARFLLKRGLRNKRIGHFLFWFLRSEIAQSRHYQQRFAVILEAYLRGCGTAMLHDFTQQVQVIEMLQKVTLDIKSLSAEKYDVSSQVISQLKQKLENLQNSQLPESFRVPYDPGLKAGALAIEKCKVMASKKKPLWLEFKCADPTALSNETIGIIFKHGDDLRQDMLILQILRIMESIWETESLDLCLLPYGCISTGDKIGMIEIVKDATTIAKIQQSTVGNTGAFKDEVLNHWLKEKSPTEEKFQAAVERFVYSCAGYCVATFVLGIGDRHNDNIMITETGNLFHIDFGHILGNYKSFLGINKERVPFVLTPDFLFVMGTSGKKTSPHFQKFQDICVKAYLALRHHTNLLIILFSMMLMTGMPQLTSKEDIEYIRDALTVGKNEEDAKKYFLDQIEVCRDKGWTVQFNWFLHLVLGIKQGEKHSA
UniProt P42336, whole entry: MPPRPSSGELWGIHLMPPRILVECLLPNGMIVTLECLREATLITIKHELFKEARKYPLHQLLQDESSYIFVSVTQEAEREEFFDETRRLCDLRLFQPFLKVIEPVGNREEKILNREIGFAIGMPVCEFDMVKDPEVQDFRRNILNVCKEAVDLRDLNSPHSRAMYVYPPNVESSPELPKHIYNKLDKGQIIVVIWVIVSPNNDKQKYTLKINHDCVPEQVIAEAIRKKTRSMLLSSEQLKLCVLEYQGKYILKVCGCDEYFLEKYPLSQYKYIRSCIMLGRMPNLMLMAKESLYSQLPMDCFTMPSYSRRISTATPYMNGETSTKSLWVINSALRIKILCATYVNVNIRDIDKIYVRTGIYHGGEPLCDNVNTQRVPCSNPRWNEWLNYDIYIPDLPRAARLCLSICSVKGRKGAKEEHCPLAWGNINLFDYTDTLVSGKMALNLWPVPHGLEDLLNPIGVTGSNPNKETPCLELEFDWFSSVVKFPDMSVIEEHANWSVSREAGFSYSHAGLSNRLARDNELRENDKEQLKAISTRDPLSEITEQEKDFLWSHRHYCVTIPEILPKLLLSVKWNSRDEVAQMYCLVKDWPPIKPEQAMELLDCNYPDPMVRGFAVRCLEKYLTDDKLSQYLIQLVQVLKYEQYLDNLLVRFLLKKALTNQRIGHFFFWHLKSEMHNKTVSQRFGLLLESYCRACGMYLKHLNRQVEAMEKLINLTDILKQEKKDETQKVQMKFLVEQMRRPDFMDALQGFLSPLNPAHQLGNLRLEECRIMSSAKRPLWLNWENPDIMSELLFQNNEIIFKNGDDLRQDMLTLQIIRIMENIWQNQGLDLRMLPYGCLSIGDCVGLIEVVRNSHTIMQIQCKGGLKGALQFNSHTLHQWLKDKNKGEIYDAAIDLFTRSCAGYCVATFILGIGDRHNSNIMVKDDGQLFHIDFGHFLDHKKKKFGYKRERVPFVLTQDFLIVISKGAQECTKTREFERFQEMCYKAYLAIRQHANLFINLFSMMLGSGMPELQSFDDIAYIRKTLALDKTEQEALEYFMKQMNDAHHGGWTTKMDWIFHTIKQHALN
UniProt P42338: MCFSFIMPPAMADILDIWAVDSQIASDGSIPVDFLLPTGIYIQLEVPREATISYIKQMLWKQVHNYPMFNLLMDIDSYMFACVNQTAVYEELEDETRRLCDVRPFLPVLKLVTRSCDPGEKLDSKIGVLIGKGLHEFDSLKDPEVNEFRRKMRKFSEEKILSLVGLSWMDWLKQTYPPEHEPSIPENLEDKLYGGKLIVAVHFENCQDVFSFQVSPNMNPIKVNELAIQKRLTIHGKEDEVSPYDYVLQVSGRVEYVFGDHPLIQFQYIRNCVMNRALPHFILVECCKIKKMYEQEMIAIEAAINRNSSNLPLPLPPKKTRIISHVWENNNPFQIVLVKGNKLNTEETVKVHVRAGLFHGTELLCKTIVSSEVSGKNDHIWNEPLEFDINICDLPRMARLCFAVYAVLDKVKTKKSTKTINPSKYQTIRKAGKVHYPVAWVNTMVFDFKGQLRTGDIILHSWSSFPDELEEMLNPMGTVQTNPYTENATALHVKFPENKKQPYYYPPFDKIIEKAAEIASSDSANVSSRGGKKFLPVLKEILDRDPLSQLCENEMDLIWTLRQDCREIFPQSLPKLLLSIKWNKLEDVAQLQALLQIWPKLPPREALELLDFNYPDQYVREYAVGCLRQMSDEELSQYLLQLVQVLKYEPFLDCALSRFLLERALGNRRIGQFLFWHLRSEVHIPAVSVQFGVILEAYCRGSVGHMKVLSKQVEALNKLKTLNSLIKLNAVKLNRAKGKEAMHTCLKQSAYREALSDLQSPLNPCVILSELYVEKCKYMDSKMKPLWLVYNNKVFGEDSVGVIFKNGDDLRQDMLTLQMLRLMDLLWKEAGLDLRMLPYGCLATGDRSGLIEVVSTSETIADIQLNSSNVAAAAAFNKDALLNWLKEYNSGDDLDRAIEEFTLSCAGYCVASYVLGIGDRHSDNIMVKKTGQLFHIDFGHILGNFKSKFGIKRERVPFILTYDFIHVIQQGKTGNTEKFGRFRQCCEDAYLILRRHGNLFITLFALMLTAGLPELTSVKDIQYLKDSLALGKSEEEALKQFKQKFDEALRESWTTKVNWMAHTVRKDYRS

Experiments:
Assay type in all cases: binding
[1] = molecular target: PI3K delta (PI3 Kd) (Homo sapiens, UniProt O00329); test: kinobeads assay, PI3K delta; conditions: Jurkat cell lysate
[2] = molecular target: PI3K gamma (PI3 Kg) (Homo sapiens, UniProt P48736); test: kinobeads assay, PI3K gamma; conditions: Jurkat cell lysate, read-out: PI3Kg inhibition value (IC50), activity level
[3] = molecular target: PI3K alpha (PI3Ka) (Homo sapiens, UniProt P42336); test: kinobeads assay, PI3K alpha; conditions: Jurkat cell lysate, read-out: PI3Ka inhibition value (IC50), activity level
[4] = molecular target: PI3K beta (PI3 Kb) (Homo sapiens, UniProt P42338); test: kinobeads assay, PI3K beta; conditions: Jurkat cell lysate
[5] = read-out: PI3Kd inhibition value (IC50), activity level
[6] = read-out: PI3Kb inhibition value (IC50), activity level

Measured: pIC50

CCNC(=O)Nc1ccc(-c2nc(N3CCOC[C@@H]3CC)c3c(n2)C(C)(C)S(=O)(=O)C3)cc1 [Example 56, (S)-1-ethyl-3-(4-(4-(3-ethylmorpholino)-7,7-dimethyl-6,6-dioxido-5,7-dihydrothieno[3,4-d]pyrimidin-2-yl)phenyl)urea]
< 5.00: [1]; [5] | [2] | [3] | [4]; [6]

C[C@@H]1c2c(nc(-c3ccc(NC(=O)NC4CC4)cc3)nc2N2CCOC[C@@H]2C)CS1(=O)=O (single isomer, unassigned) [Example 9]
5.00 to 6.00: [3]
< 5.52: [1]; read-out: PI3Kd inhibition value (IC50), numeric bound | [4]; read-out: PI3Kb inhibition value (IC50), numeric bound

CCNC(=O)Nc1ccc(-c2nc3c(c(N4CCOC[C@@H]4CC)n2)[C@H](C)S(=O)(=O)C3)cc1 [Example 53, 1-ethyl-3-(4-((S)-4-((S)-3-ethylmorpholino)-5-methyl-6,6-dioxido-5,7-dihydrothieno[3,4-d]pyrimidin-2-yl)phenyl)urea]
< 5.00: [1]; [5] | [2] | [3] | [4]; [6]

CCNC(=O)Nc1ccc(-c2nc3c(c(N4CCOC[C@@H]4C)n2)C(CC)S(=O)(=O)C3)cc1 (stereo partly drawn) [Example 67, 1-ethyl-3-(4-(5-ethyl-4-((S)-3-methylmorpholino)-6,6-dioxido-5,7-dihydrothieno[3,4-d]pyrimidin-2-yl)phenyl)urea]
< 5.00: [1]; [5] | [2] | [3] | [4]; [6]

CCC1c2c(nc(-c3ccc(NC(=O)NC4CC4)cc3)nc2N2CCOC[C@@H]2C)CS1(=O)=O (stereo partly drawn) [Example 49, 1-cyclopropyl-3-(4-(5-ethyl-4-((S)-3-methylmorpholino)-6,6-dioxido-5,7-dihydrothieno[3,4-d]pyrimidin-2-yl)phenyl)urea]
5.00 to 6.00: [3] | [4]; [6]
< 5.00: [1]; [5] | [2]

O=C(NCCO)Nc1ccc(-c2nc3c(c(N4CC5CCC(C4)O5)n2)CS(=O)(=O)C3)cc1 [Example 16, 1-(4-(4-(8-oxa-3-azabicyclo[3.2.1]octan-3-yl)-6,6-dioxido-5,7-dihydrothieno[3,4-d]pyrimidin-2-yl)phenyl)-3-(2-hydroxyethyl)urea]
< 5.00: [1]; [5] | [2] | [3] | [4]; [6]

CNC(=O)Nc1ccc(-c2nc(N3CCOC[C@@H]3C)c3c(n2)C(C)(C)S(=O)(=O)C3)cc1 [Example 57, (S)-1-(4-(7,7-dimethyl-4-(3-methylmorpholino)-6,6-dioxido-5,7-dihydrothieno[3,4-d]pyrimidin-2-yl)phenyl)-3-methylurea]
< 5.00: [1]; [5] | [2] | [3] | [4]; [6]

CC1(C)c2nc(-c3ccc(NC(=O)NC4CC4)cc3)nc(N3C4CCC3COC4)c2CS1(=O)=O [Example 59, 1-(4-(4-(3-oxa-8-azabicyclo[3.2.1]octan-8-yl)-7,7-dimethyl-6,6-dioxido-5,7-dihydrothieno[3,4-d]pyrimidin-2-yl)phenyl)-3-cyclopropylurea]
< 5.00: [1]; [5] | [2] | [3] | [4]; [6]

CNC(=O)Nc1ccc(-c2nc(N3CCOC[C@@H]3C)c3c(n2)C(C)(C)S(=O)(=O)C3)cc1F [Example 65, (S)-1-(4-(7,7-dimethyl-4-(3-methylmorpholino)-6,6-dioxido-5,7-dihydrothieno[3,4-d]pyrimidin-2-yl)-2-fluorophenyl)-3-methylurea]
< 5.00: [1]; [5] | [2] | [3] | [4]; [6]

C[C@H]1COCCN1c1nc(-c2ccc(NC(=O)NCCF)cc2)nc2c1CS(=O)(=O)C2(C)C [Example 61, (S)-1-(4-(7,7-dimethyl-4-(3-methylmorpholino)-6,6-dioxido-5,7-dihydrothieno[3,4-d]pyrimidin-2-yl)phenyl)-3-(2-fluoroethyl)urea]
< 5.00: [1]; [5] | [2] | [3] | [4]; [6]

C[C@@H]1COCCN1c1nc(-c2ccc(NC(=O)NC3CC3)cc2)nc2c1[C@H](C)S(=O)(=O)C2 [Example 63, 1-cyclopropyl-3-(4-((S)-5-methyl-4-((R)-3-methylmorpholino)-6,6-dioxido-5,7-dihydrothieno[3,4-d]pyrimidin-2-yl)phenyl)urea]
< 5.00: [1]; [5] | [2] | [3] | [4]; [6]

C[C@H]1COCCN1c1nc(-c2ccc(NC(=O)NC3CC3)cc2)nc2c1CS(=O)(=O)C2(C)F (stereo partly drawn) [Example 43, 1-cyclopropyl-3-(4-(7-fluoro-7-methyl-4-((S)-3-methylmorpholino)-6,6-dioxido-5,7-dihydrothieno[3,4-d]pyrimidin-2-yl)phenyl)urea]
< 5.00: [1]; [5] | [2] | [3] | [4]; [6]

CCNC(=O)Nc1ccc(-c2nc3c(c(N4CCOC[C@@H]4CC)n2)CS(=O)(=O)C3C)cc1 (stereo partly drawn) [Example 41, 1-ethyl-3-(4-(4-((S)-3-ethylmorpholino)-7-methyl-6,6-dioxido-5,7-dihydrothieno[3,4-d]pyrimidin-2-yl)phenyl)urea]
< 5.00: [1]; [5] | [2] | [4]; [6]
5.00 to 6.00: [3]

CC1Cc2nc(-c3ccc(NC(=O)NC4CC4)cc3)nc(N3CCOC[C@@H]3C)c2C(C)S1(=O)=O (stereo partly drawn) [Example 72, 1-cyclopropyl-3-(4-(5,7-dimethyl-4-((S)-3-methylmorpholino)-6,6-dioxido-7,8-dihydro-5H-thiopyrano[4,3-d]pyrimidin-2-yl)phenyl)urea]
< 5.00: [1]; [5] | [2] | [3] | [4]; [6]

CCNC(=O)Nc1ccc(-c2nc(N3CCOC[C@@H]3C)c3c(n2)C(C)(C)S(=O)(=O)C3)cc1 [Example 62, (S)-1-(4-(7,7-dimethyl-4-(3-methylmorpholino)-6,6-dioxido-5,7-dihydrothieno[3,4-d]pyrimidin-2-yl)phenyl)-3-ethylurea]
< 5.00: [1]; [5] | [2] | [3] | [4]; [6]

CC1Cc2nc(-c3ccc(NC(=O)NC4CC4)cc3)nc(N3CCOC[C@@H]3C)c2CS1(=O)=O (stereo partly drawn) [Example 71, 1-cyclopropyl-3-(4-(7-methyl-4-((S)-3-methylmorpholino)-6,6-dioxido-7,8-dihydro-5H-thiopyrano[4,3-d]pyrimidin-2-yl)phenyl)urea]
< 5.00: [1]; [5] | [2] | [3] | [4]; [6]

CCNC(=O)Nc1ccc(-c2nc3c(c(N4CCOC[C@@H]4C)n2)[C@@H](C)S(=O)(=O)C3)cc1 [Example 39, 1-ethyl-3-(4-((R)-5-methyl-4-((S)-3-methylmorpholino)-6,6-dioxido-5,7-dihydrothieno[3,4-d]pyrimidin-2-yl)phenyl)urea]
5.00 to 6.00: [3]
< 5.00: [1]; [5] | [2] | [4]; [6]

CCC1COCCN1c1nc(-c2ccc(NC(=O)NC3CC3)cc2)nc2c1C(C)S(=O)(=O)C2 (centres unmarked) [Example 32, 1-cyclopropyl-3-(4-(4-(3-ethylmorpholino)-5-methyl-6,6-dioxido-5,7-dihydrothieno[3,4-d]pyrimidin-2-yl)phenyl)urea]
< 5.00: [1]; [5] | [2] | [3] | [4]; [6]

C[C@H]1COCCN1c1nc(-c2ccc(NC(=O)NC3CC3)cc2)nc2c1CSC2 [Example 1, (S)-1-cyclopropyl-3-(4-(4-(3-methylmorpholino)-5,7-dihydrothieno[3,4-d]pyrimidin-2-yl)phenyl)urea]
< 5.00: [1]; [5] | [2] | [3] | [4]; [6]

CCNC(=O)Nc1ccc(-c2nc(N3CCOC[C@@H]3C)c3c(n2)C(C)(C)S(=O)(=O)C3)c(F)c1 [Example 69, (S)-1-(4-(7,7-dimethyl-4-(3-methylmorpholino)-6,6-dioxido-5,7-dihydrothieno[3,4-d]pyrimidin-2-yl)-3-fluorophenyl)-3-ethylurea]
< 5.00: [1]; [5] | [2] | [3] | [4]; [6]

CCNC(=O)Nc1ccc(-c2nc3c(c(N4CCOC[C@@H]4C)n2)CS(=O)(=O)C3)cc1 [Example 11, (S)-1-ethyl-3-(4-(4-(3-methylmorpholino)-6,6-dioxido-5,7-dihydrothieno[3,4-d]pyrimidin-2-yl)phenyl)urea]
< 5.00: [1]; [5] | [2] | [4]; [6]

CCNC(=O)Nc1ccc(-c2nc3c(c(N4CCOC[C@@H]4C)n2)CS(=O)(=O)C(C)(C)C3)cc1 [Example 73, (S)-1-(4-(7,7-dimethyl-4-(3-methylmorpholino)-6,6-dioxido-7,8-dihydro-5H-thiopyrano[4,3-d]pyrimidin-2-yl)phenyl)-3-ethylurea]
< 5.00: [1]; [5] | [2] | [3] | [4]; [6]

CC[C@H]1COCCN1c1nc(-c2ccc(NC(=O)NC)c(F)c2)nc2c1CS(=O)(=O)C2(C)C [Example 64, (S)-1-(4-(4-(3-ethylmorpholino)-7,7-dimethyl-6,6-dioxido-5,7-dihydrothieno[3,4-d]pyrimidin-2-yl)-2-fluorophenyl)-3-methylurea]
< 5.00: [1]; [5] | [2] | [4]; [6]
5.00 to 6.00: [3]

CCNC(=O)Nc1ccc(-c2nc3c(c(N4CC5CCC(C4)O5)n2)CS(=O)(=O)C3)cc1 [Example 15, 1-(4-(4-(8-oxa-3-azabicyclo[3.2.1]octan-3-yl)-6,6-dioxido-5,7-dihydrothieno[3,4-d]pyrimidin-2-yl)phenyl)-3-ethylurea]
< 5.00: [1]; [5] | [2] | [3] | [4]; [6]

CCCNC(=O)Nc1ccc(-c2nc3c(c(N4CCOC[C@@H]4C)n2)C(C)S(=O)(=O)C3)cc1 (stereo partly drawn) [Example 45, 1-(4-(5-methyl-4-((S)-3-methylmorpholino)-6,6-dioxido-5,7-dihydrothieno[3,4-d]pyrimidin-2-yl)phenyl)-3-propylurea]
5.00 to 6.00: [3]
< 5.00: [1]; [5] | [2] | [4]; [6]
